Measurements from the Kinase Knowledgebase extract (Sharma et al. 2016).

Protein sequences, listed by entry. Tags and fused reporters are not part of them. Lines headed by an entry give the natural chain unless they say otherwise; changes in a name come on top.
UniProt P48736: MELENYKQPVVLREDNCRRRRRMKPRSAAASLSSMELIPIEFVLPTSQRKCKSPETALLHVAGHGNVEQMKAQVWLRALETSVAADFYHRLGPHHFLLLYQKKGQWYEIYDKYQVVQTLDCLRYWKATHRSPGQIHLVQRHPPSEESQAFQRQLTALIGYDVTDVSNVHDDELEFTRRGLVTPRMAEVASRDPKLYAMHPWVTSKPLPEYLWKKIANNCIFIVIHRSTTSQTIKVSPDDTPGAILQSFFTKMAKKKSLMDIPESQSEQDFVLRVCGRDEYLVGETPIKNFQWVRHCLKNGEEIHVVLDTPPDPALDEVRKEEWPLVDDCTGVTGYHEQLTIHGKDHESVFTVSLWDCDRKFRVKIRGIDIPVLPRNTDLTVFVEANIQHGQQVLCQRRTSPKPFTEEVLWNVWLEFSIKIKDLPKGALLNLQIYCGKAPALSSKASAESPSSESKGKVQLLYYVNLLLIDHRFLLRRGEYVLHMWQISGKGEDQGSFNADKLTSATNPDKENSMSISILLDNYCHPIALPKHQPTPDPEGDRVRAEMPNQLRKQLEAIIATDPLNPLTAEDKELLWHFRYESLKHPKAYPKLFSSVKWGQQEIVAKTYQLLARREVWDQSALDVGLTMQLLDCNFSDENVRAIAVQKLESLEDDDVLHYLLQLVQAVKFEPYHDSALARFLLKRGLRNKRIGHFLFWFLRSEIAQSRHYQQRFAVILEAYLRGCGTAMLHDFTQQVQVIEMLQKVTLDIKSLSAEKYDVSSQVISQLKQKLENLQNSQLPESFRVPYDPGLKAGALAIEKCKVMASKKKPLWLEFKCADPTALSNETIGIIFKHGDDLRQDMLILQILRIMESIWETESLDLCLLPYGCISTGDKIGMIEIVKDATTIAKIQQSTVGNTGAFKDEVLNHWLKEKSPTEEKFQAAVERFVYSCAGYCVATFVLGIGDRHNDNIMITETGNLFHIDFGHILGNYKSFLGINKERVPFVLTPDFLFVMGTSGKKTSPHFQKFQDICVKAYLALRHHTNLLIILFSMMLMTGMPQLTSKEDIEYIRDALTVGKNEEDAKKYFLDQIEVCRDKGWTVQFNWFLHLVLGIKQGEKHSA

Molecular target: PIK3CG (human) (UniProt P48736)
Test: Enzyme Assay

C[C@H](NC(=O)c1c(N)nn2cccnc12)c1cc2cccc(Cl)c2c(=O)n1-c1ccccc1 was tested, and the IC50 was under 100 nM.
